The record followed here is ChEMBL document CHEMBL3817815, “Impact of Binding Site Comparisons on Medicinal Chemistry and Rational Molecular Design” (J Med Chem, 2016).

Amino acid sequences for entries named in this document (tags omitted).
UniProt P23219, whole entry: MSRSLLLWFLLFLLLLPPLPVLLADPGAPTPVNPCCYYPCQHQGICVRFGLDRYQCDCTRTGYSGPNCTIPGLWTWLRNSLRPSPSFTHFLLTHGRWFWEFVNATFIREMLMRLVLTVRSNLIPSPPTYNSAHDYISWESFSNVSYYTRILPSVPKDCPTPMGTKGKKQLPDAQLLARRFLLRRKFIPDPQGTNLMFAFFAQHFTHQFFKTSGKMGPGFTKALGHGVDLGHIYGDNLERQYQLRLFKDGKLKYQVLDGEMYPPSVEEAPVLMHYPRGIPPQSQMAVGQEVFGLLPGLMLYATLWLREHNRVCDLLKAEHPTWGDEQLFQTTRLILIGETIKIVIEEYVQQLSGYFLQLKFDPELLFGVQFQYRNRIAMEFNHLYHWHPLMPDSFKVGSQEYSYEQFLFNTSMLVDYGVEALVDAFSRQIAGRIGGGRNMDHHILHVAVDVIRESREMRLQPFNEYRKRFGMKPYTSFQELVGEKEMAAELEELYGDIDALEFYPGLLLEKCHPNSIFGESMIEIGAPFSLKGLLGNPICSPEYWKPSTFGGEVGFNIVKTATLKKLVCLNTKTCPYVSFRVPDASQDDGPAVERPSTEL

This assay addresses Prostaglandin G/H synthase 1 (Homo sapiens, UniProt P23219). Put plainly: Inhibition of human recombinant COX1 expressed in Sf9 cell microsomes assessed as reduction in conversion of arachidonic acid to PGE2 at 250 uM incubated for 5 mins by HTRF assay. Background: In TR-FRET formats the signal depends on donor and acceptor labels being close together.

The term inhibition denotes the share of the control response that was lost under treatment. For the molecule `CC(C)(Oc1ccc(C(=O)c2ccc(Cl)cc2)cc1)C(=O)O`, the inhibition stood at 48%.
